Measurements as given in US4016272A, “Anthelmintic thiodiphenylamine cupric chloride complex salt” (priority 1975, dated 1977).

What was measured:
[1] = room temperature

For “complex salt of thiodiphenylamine cupric chloride”, the soluble in water was 2-2.5% and the “storage without loosing its activity” value [1] was “over 5 years”.
